pEC50: −log10 of the molar value.
Biological target: STING (Homo sapiens, UniProt Q86WV6, G230A/H232R/R293Q/R71H)
Experiment: STING reporter assay (luciferase) in THP1-Dual KO-IFNAR2 cells stimulated with 2′3′cGAMP
Details: read-out: Pharmaron, THP1_IFNAR2 STING 24 h Luci Normalized: GeoMean EC50, 2′3′cGAMP 15 μM final, luciferase reporter activity
Procedure: STING pathway activation by the compounds described herein was measured using TTIP1-Dual™ cells (KO-IFNAR2).
TTIP1-Dual™ KO-IFNAR2 Cells (obtained from invivogen) were maintained in RPMI, 10% FCS, 5 ml P/S, 2 mM L-glut, 10 mM Hepes, and 1 mM sodium pyruvate. Compounds were spotted in empty 384 well tissue culture plates (Greiner 781182) by Echo for a final concentration of 0.0017-100 μM. Cells were plated into the TC plates at 40 μL per well, 2×10E6 cells/mL. For activation with STING ligand, 2′3′cGAMP (MW 718.38, obtained from Invivogen), was prepared in Optimem media.
The following solutions were prepared for each 1×384 plate: • Solution A: 2 mL Optimem with one of the following stimuli: • […] • Solution B: 2 mL Optimem with […] Lipofectamine 2000→Incubate 5 min at RT
2 mL of solution A and 2 ml Solution B was mixed and incubated for 20 min at room temperature (RT). […] Luciferase reporter activity was then measured. EC50 values were calculated by using standard methods known in the art.
Luciferase reporter assay: 10 μL of supernatant from the assay was transferred to white 384-plate with flat bottom and squared wells. […] Luminescence was measured on a Platereader (e.g., Spectramax I3X (Molecular Devices GF3637001)).
Luciferase reporter activity was then measured. EC50 values were calculated by using standard methods known in the art.

By UniProt entry, the sequences of proteins in these tests, tags left out.
UniProt Q86WV6, whole entry R71H/G230A/H232R/R293Q: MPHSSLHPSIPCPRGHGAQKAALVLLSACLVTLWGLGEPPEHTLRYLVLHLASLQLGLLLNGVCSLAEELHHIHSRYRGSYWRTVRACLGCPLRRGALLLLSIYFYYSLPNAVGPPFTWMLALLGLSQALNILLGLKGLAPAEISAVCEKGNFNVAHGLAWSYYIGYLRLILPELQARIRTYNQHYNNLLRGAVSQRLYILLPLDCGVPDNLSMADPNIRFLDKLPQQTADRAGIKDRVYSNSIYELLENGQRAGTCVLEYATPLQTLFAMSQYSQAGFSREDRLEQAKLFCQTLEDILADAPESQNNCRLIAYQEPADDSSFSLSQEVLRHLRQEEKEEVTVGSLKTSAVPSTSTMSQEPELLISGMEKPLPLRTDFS

## O=C(Nc1c[nH]c2ccc(OCCc3ccc(C(F)(F)F)cc3)cc12)C1CC2(CC2)C1
  pEC50: 6.00 to 6.70

From patent publication US20230250060A1 (IFM Due, Inc., priority 2022, published 2023)
